This passage reports ED50 ratio, Bmax and Recovery results from ChEMBL document CHEMBL1127305, “kappa Opioid receptor selective affinity labels: electrophilic benzeneacetamides as kappa-selective opioid antagonists” (J Med Chem, 1994).

The chains behind the UniProt entries cited, without tags or fusion partners. Where a name states a change or a piece, a line headed by the entry shows the natural chain unless it says otherwise.
UniProt P32300, whole entry, looked up: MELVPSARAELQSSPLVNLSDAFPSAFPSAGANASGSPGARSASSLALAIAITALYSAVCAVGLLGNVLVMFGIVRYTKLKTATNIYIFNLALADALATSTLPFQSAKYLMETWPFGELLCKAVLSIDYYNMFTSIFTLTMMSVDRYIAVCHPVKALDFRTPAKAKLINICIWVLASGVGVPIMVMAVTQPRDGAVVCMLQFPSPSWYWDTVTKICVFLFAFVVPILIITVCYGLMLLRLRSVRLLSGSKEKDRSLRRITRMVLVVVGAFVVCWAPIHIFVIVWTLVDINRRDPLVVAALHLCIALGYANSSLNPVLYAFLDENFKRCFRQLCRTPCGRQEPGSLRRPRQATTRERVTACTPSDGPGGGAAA
UniProt P33534: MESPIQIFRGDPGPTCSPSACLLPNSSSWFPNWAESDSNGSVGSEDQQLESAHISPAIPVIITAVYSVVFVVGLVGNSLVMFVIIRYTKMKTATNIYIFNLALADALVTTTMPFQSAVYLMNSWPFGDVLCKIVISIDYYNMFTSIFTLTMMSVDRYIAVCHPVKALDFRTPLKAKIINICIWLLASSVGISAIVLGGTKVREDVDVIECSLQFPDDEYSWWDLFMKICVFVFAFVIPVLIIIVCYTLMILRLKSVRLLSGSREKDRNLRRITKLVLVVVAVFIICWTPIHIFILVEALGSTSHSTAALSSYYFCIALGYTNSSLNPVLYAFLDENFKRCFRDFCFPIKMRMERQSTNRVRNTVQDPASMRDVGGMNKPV
UniProt P42866, whole entry, looked up: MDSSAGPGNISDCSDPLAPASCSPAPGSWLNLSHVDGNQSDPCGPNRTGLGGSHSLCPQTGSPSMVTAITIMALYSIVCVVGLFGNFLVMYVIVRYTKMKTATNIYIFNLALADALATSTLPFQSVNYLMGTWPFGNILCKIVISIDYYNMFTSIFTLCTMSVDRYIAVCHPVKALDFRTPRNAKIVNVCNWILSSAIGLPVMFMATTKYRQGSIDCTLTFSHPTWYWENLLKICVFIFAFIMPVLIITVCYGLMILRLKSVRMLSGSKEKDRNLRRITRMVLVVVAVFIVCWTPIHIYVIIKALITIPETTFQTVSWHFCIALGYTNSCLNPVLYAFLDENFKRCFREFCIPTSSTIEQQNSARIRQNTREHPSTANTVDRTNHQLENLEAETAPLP
UniProt P41144: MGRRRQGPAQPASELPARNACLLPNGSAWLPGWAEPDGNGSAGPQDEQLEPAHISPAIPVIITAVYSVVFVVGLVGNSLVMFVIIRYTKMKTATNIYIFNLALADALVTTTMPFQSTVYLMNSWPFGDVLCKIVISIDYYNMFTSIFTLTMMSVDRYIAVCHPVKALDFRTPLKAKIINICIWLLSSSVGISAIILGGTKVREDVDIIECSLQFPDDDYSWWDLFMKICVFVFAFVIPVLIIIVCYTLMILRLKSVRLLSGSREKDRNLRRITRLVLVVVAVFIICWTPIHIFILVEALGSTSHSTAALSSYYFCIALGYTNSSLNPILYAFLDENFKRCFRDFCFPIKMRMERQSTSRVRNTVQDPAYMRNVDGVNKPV

Molecules are shown by their SMILES.

Experiment [1] concerns the target Delta-type opioid receptor (Mus musculus) (UniProt P32300). Description: Agonist selectivity for delta opioid receptor in the naltrindole-treated mice Subcutaneous dose of 44.44 umol/kg of naltrindole was administered.
Experiment [2] has as its target Kappa-type opioid receptor (Mus musculus) (UniProt P33534). Description: Agonist selectivity for kappa opioid receptor in the naltrindole-treated mice. Subcutaneous dose of 12.25 umol/kg of norBNI was administered.
Experiment [3] concerns the target Mu-type opioid receptor (Mus musculus) (UniProt P42866). In words: Agonist selectivity for mu opioid receptor in the beta-funaltrexamine-treated mice Subcutaneous dose of 20.36 umol/kg of beta-FNA was administered.
The target of experiment [4] is Kappa-type opioid receptor (Cavia porcellus) (UniProt P41144). Description: Bmax for kappa opioid receptor in guinea pig brain membranes [3H]U-69593 as radioligand. The note with it: Membrane.
The species named for experiment [5] is Cavia porcellus. Description: Tested for wash-resistant activity after forty post-washes (for removal of nor BNI) with Kreb's buffer pre-incubated with compound.
For experiment [6], the species on record is Cavia porcellus. In words: Tested for wash-resistant activity by incubating guinea pig ileal longitudinal muscle (pre-treated with the compound) with nor BNI (20 nM).Number of determinations, n=3. The note with it: Muscle tissue.
Experiment [7] concerns the target Delta-type opioid receptor (Mus musculus) (UniProt P32300). Description: Antagonist selectivity for delta opioid receptor in treated mice at(sc) dose of 16 umol/kg, DPDPE was injected subcutaneously, at 20 min peak time by Mouse tail-flick assay. On the technique in general: Hot-plate and tail-flick tests time the reaction to a heat stimulus.
The target of experiment [8] is Mu-type opioid receptor (Mus musculus) (UniProt P42866). In words: Antagonist selectivity of mu opioid receptor in treated mice to that of control at subcutaneous dose of 16 umol/kg, morphine was injected subcutaneously, at 30 min peak time by Mouse tail-flick assay.
The target of experiment [9] is Kappa-type opioid receptor (Mus musculus) (UniProt P33534). In words: Antagonist selectivity of kappa opioid receptor in treated mice at subcutaneous dose of 16 umol/kg, morphine was injected subcutaneously, at 20 min peak time by Mouse tail-flick assay.
Experiment [10] deals with Delta-type opioid receptor (Mus musculus) (UniProt P32300). In words: Agonist selectivity for delta opioid receptor in the naltrindole-treated mice subcutaneous dose of 44.44 umol/kg of naltrindole was administered.
Experiment [11] addresses Mu-type opioid receptor (Mus musculus) (UniProt P42866). In words: Agonist selectivity for mu opioid receptor in the beta-funaltrexamine-treated mice subcutaneous dose of 20.36 umol/kg of beta-FNA was administered.
The target in experiment [12] is Kappa-type opioid receptor (Mus musculus) (UniProt P33534). Description: Agonist selectivity for kappa opioid receptor in the naltrindole-treated mice subcutaneous dose of 12.25 umol/kg of norBNI was administered.
Experiment [13] is filed under the species Cavia porcellus. In words: Tested for wash-resistant activity after forty post-washes (for removal of naltrexone) with Kreb's buffer pre-incubated with compound. Type of experiment: functional, organism-based. The gist of the method:
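Agonist-treated guinea pig ileal longitudinal muscle was washed, then incubated with naltrexone (500 nM) for 15 min. A further forty washes with Krebs' buffer followed. Read-out was percent recovery of twitch height.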

Experiment [14] is filed under the species Cavia porcellus. In words: Tested for wash-resistant activity by incubating guinea pig ileal longitudinal muscle (pre-treated with the compound) with nor BNI (20 nM). Number of determinations, n=3. The note with it: Muscle tissue.

`COC(=O)/C=C/C(=O)Nc1cccc([C@@H](CN2CCCC2)N(C)C(=O)Cc2ccc(Cl)c(Cl)c2)c1`: the ED50 ratio in experiment [1] worked out at 1.02; in experiment [2], 9.09; in experiment [3], 2.08.

Turning to `CN(C(=O)Cc1ccc(Cl)c(Cl)c1)[C@H](CN1CCCC1)c1cccc(N=C=S)c1`, the Bmax in [4] amounted to 3.55 fM/mg. Further, the figures for the Recovery in the experiment filed under Cavia porcellus [5] and in the experiment filed under Cavia porcellus [6] were 35% and 77%, respectively.

With `CN(C(=O)Cc1ccc(Cl)c(Cl)c1)[C@H](CN1CCCC1)c1ccc(N=C=S)cc1`, the ED50 ratio is 1.2 in experiment [7]; 3.1 in [8]; 4.8 in experiment [9]; 0.48 in [10]; 0.78 in experiment [11]; 2.78 in experiment [12].

As to `CN(C(=O)Cc1ccc(Cl)c(Cl)c1)[C@H](CN1CCCC1)c1ccccc1` [ICI-199,441], the Recovery in the experiment filed under Cavia porcellus [13] is 32%; in the experiment filed under Cavia porcellus [14], 91%; in the experiment filed under Cavia porcellus [5] it was 32%.
